Experimental data taken from patent US6436639B1, “Bak promoter expression system” (Tanox, Inc., priority 1997, dated 2002).

Columns and labels:
bak promoter GAS = type: cell-based, human
Method: (§1) To examine the transcription factors that specifically bind promoter and neighboring elements of the bak gene and presumably mediate INF-γ and poly (I-C) induction of bak mRNA synthesis, electrophoretic mobility shift and supershift assays were performed. […] These oligonucleotides were radioactively end-labelled with ^32P-ATP and T4 polynucleotide kinase, and allowed to interact with nuclear extracts prepared from HT-29 cells as described (Bomsztyk, K. et al. J. Biol. Chem. 265:9413 (1990)). The cells were pre-treated with INF-α, -β, or -γ, or poly (I-C) as described in Example 5. Binding reactions were carried out in a total volume of 20 μl, containing nuclear extract (10 μg total protein), labeled DNA (50,000 cpm), varying amounts of unlabeled competitor oligonucleotide and poly (I-C) (1 μg) in EMSA buffer (5 mM KCl, 10 mM Tris-HCl (pH 7.5), 1 mM dithiothreitol, 1 mM EDTA, 4% glycerol) for 10 minutes at room temperature. Gel supershift assays were performed as described above, except that antibodies specific for various promoter-binding proteins were added after the initial binding reaction and the mixture was incubated overnight at 4° C. The samples were then fractionated by electrophoresis on a 4% polyacrylamide gel at 10 mA at 4° C. in 0.3×TBE running buffer. The gel was then dried and exposed to x-ray film at -70° C. overnight.

bak intron 1 ISRE = type: cell-based, human
Method: as §1

## Double-stranded deoxyinosine-deoxycytosine copolymer [poly (I-C), reference compound]
Bak promoter GAS
  specific protein binding to Bak GAS (complex C1): not observed
Bak intron 1 ISRE
  IRF protein binding to Bak ISRE (complexes C1, C2, C3): enhanced
